{"source": "ChEMBL document CHEMBL5252533", "about": "“Dual Kinase-Bromodomain Inhibitors in Anticancer Drug Discovery: A Structural and Pharmacological Perspective” (J Med Chem, 2016)", "target": "Bromodomain testis-specific protein (Homo sapiens, UniProt Q58F21)", "assay": "biochemical", "type": "cell-based", "data": [{"compound": "Oc1ccc(-c2nc(-c3ccncc3)c(-c3ccc(F)cc3)[nH]2)cc1", "note": "[SB-202190]", "values": [{"measurement": "Kd", "result": 3.42, "unit": "µM"}]}]}
